The text below walks through data of patent US12642859B2, “Macropinocytosis selective monobody-drug conjugates” (priority 2020, dated 2026).

This series relates to autochthonous KPC pancreatic tumor. Kind of series: Uptake in genetically modified (autochthonous KPC) mouse model of PDAC. On the set-up: species or system mice. To be noted: ex vivo analysis, CK8 staining. How it is done:
FIGS. 10A-10D show FN-Cy5.5 uptake in a genetically modified mouse model of PDAC. Autochonous LSL-KPC^G12V; LSLp53^R172H; p48Cre (KPC, 4mo) and wild type (WT, 4 mo) mice were treated with FN-Cy5.5. Ex vivo images of FIG. 10A depict biodistribution in various organs at 1 hr and 24 hr. […] In FIGS. 10C-10D, ex vivo images (6 hr) depict tumor uptake, retention, and colocalization with a cancer cell maker (CK8).
Mice were sacrificed and ex vivo analysis was carried out on tumors displaying albumin-FITC (green), FN-Cy5.5 (purple), tumor cell marker CK8 (orange), and dapi (blue).
Additionally, similar experimentation was carried out with co-delivery of an albumin bound FITC and FN-Cy5.5. Albumin based therapy is a current standard of care in PDAC treatment. Albumin-FITC and FN-Cy5.5 both colocalized within the established pancreatic tumors in mice (FIG. 11).

In the case of albumin-FITC, the “localization within tumor on co-delivery of albumin-FITC and FN-Cy5.5” value is listed as “larger accumulation in the extracellular tumor microenvironment”.
